{
  "source": "PubChem BioAssay AID706",
  "about": "(SRMLSC, 2007)",
  "note": "Only a part is listed here, and it is no random draw. Active and inactive are the calls of the source.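 Rule for the calls: active = growth inhibition above a set limit, 3 SD over mean compound inhibition, in both replicates (cut at about 43% in these data); inconclusive = above the limit in only one replicate; inactive = at or below the limit in both replicates.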",
  "data": [
    {"assay": "S. cerevisiae growth inhibition in restrictive medium, OD615, pilot screen, restrictive growth control, yeast lifespan reduction project (AID 706);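 note: modified DeaD lifespan yeast strain shifted to restrictive glucose medium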", "settings": "OD615, 48 h, at 10 µM, active compounds read high", "procedure,_shortened": "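Material: modified S. cerevisiae; Medium: glucose-based CSMM-D restrictive medium; Compound dosing: one concentration, 10 µM final, 0.25% DMSO; Incubation: 48 h compound exposure at 30 °C; Measured by: OD615.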", "values": [
      {"smiles": "COC(=O)c1cc2c(s1)N=C(c1ccccc1)N(C)P2(=O)N1CCOCC1", "note": "(stereo unspecified)", "growth inhibition": "inactive: -28%"}
    ]}
  ]
}
